Source: ChEMBL document CHEMBL1156543, “Identification of N-(4-piperidinyl)-4-(2,6-dichlorobenzoylamino)-1H-pyrazole-3-carboxamide (AT7519), a novel cyclin dependent kinase inhibitor using fragment-based X-ray crystallography and structure based drug design” (J Med Chem, 2008)

The chains behind the UniProt entries cited, without tags or fusion partners.
UniProt P06493, whole entry: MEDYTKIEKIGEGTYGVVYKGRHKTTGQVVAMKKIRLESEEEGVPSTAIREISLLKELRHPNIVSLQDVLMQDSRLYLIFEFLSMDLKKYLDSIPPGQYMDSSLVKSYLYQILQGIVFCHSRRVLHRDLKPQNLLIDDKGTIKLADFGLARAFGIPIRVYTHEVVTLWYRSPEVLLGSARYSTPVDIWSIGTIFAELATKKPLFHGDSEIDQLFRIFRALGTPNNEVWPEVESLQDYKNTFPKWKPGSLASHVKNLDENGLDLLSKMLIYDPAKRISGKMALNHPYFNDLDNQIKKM

What was measured:
[1] = target: Cyclin-dependent kinase 2 (Homo sapiens, UniProt P24941)
[2] = target: Cyclin-dependent kinase 1/cyclin B1 (Homo sapiens, UniProt P06493)

IC50 [1]	IC50 [2]	SMILES
97000 nM		O=C(Nc1ccccc1)c1cc[nH]n1
660 nM		NS(=O)(=O)c1ccc(NC(=O)c2n[nH]c3ccccc23)cc1
1500 nM		CC(C)Nc1cc(Cl)nc2c(C#N)cnn12
	980 nM	O=C(NC1CCNCC1)c1n[nH]cc1NC(=O)c1c(F)cccc1F
